# Results: PubChem BioAssay (NCI)
# This is a selection; strong and weak results do not stand in their true shares.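 Results are percent growth after 48 hours of single-concentration exposure. 100 means growth as in untreated cells, lower positive values show inhibition; negative values down to -100 show cell death.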 Activity calls are given as the source filed them. Rule for the calls: active = growth percent below 10; inactive = the rest.
# Columns and labels:
# Test in all cases: NCI-60 one-dose screen, 48 h (100 = growth as untreated, 0 = no growth, -100 = all killed)
# Settings in all cases: 10 µM unless noted
# MOLT-4 leukemia = test system: MOLT-4 leukemia
# SR leukemia = test system: SR leukemia
# RPMI-8226 leukemia = test system: RPMI-8226 leukemia
# OVCAR-8 ovarian = test system: OVCAR-8 ovarian
# OVCAR-5 ovarian = test system: OVCAR-5 ovarian
# OVCAR-4 ovarian = test system: OVCAR-4 ovarian
# SK-OV-3 ovarian = test system: SK-OV-3 ovarian
# IGROV1 ovarian = test system: IGROV1 ovarian
# OVCAR-3 ovarian = test system: OVCAR-3 ovarian
# HS 578T breast = test system: HS 578T breast
SMILES,growth (MOLT-4 leukemia),growth (SR leukemia),growth (RPMI-8226 leukemia),growth (OVCAR-8 ovarian),growth (OVCAR-5 ovarian),growth (OVCAR-4 ovarian),growth (SK-OV-3 ovarian),growth (IGROV1 ovarian),growth (OVCAR-3 ovarian),growth (HS 578T breast)
O=[As](O)(c1cccs1)c1cccs1,inactive: 108%,inactive: 104%,inactive: 83.2%,inactive: 107%,inactive: 99%,inactive: 96.3%,inactive: 100%,inactive: 58%,inactive: 113%,inactive: 96.5%
CC(C)(NCCCl)C(O)c1ccccc1 (stereo not given),inactive: 66.2%,inactive: 68.6%,inactive: 85.2%,inactive: 80.2%,inactive: 118%,inactive: 93.6%,inactive: 94.3%,inactive: 96%,inactive: 98.6%,inactive: 103%
[N-]=[N+]=NC(=O)c1cccc([N+](=O)[O-])c1,inactive: 75.3%,inactive: 84%,inactive: 30.8%,inactive: 63.6%,inactive: 85.4%,inactive: 66.1%,inactive: 106%,inactive: 87.9%,inactive: 47.9%,inactive: 105%
CCN(CCCl)Cc1cccc2ccccc12,inactive: 96.5%,inactive: 98.3%,inactive: 97.2%,inactive: 99.2%,inactive: 101%,inactive: 104%,inactive: 106%,inactive: 113%,inactive: 125%,inactive: 118%
CN(CCCl)CCC(=O)c1ccccc1,inactive: 83.4%,inactive: 101%,inactive: 50.3%,inactive: 101%,inactive: 97.8%,inactive: 99.6%,inactive: 115%,inactive: 107%,inactive: 102%,inactive: 95.2%
COc1cc([N+](=O)[O-])c(Nc2ccc(Cl)cc2[N+](=O)[O-])c([N+](=O)[O-])c1,inactive: 70.3%,inactive: 60%,inactive: 67.6%,inactive: 62.6%,inactive: 79.7%,inactive: 90.1%,inactive: 101%,inactive: 69.4%,inactive: 91.6%,inactive: 77.8%
O=C(c1ccccc1)C(NCCCl)c1ccccc1 (stereo not given),inactive: 111%,inactive: 97.6%,inactive: 101%,inactive: 96.9%,inactive: 99.8%,inactive: 110%,inactive: 114%,inactive: 85%,inactive: 102%,inactive: 99.1%
ClCCN1CCn2cnc3ncnc-3c21,inactive: 99.9%,inactive: 86.8%,inactive: 113%,inactive: 108%,inactive: 108%,inactive: 103%,inactive: 105%,inactive: 114%,inactive: 109%,inactive: 102%
C=NNc1ccc([N+](=O)[O-])cc1[N+](=O)[O-],inactive: 79.9%,inactive: 84.5%,inactive: 87%,inactive: 94.8%,inactive: 99.2%,inactive: 103%,inactive: 96.7%,inactive: 86.8%,inactive: 96.5%,inactive: 91.2%
CCCN(CCCl)C1c2ccccc2-c2ccccc21,inactive: 81.1%,inactive: 75.3%,inactive: 98.7%,inactive: 99.7%,inactive: 94.5%,inactive: 97.5%,inactive: 92.1%,inactive: 102%,inactive: 108%,inactive: 106%
O=C(Nc1ccc([N+](=O)[O-])cc1)N(CCBr)CCBr,inactive: 107%,inactive: 94.2%,inactive: 95.2%,inactive: 103%,inactive: 105%,inactive: 98.2%,inactive: 105%,inactive: 106%,inactive: 111%,inactive: 116%
O=P(Cl)(N1CCCCCC1)N1CCCCCC1,inactive: 102%,inactive: 104%,inactive: 108%,inactive: 98.9%,inactive: 104%,inactive: 113%,inactive: 123%,inactive: 107%,inactive: 116%,inactive: 113%
O=[N+]([O-])c1cccc(Oc2ccc([N+](=O)[O-])cc2[N+](=O)[O-])c1,inactive: 25.5%,inactive: 14.9%,inactive: 18.5%,active: 7.87%,inactive: 57.3%,inactive: 45.3%,inactive: 16.5%,active: -26.1%,inactive: 17.5%,inactive: 20.3%
O=C(Oc1c(Cl)cc(Cl)cc1[N+](=O)[O-])c1cc([N+](=O)[O-])cc([N+](=O)[O-])c1,inactive: 49.4%,inactive: 96.2%,inactive: 101%,inactive: 95.9%,inactive: 114%,inactive: 97.6%,inactive: 99.8%,inactive: 110%,inactive: 116%,inactive: 85.2%
CCCCOP(OCCCC)OCCCC,inactive: 97.5%,inactive: 95.3%,inactive: 137%,inactive: 113%,inactive: 95.9%,inactive: 102%,inactive: 112%,inactive: 115%,inactive: 125%,inactive: 120%
CC(C)OP(=S)(Cl)OC(C)C,inactive: 91.2%,inactive: 94.6%,inactive: 102%,inactive: 103%,inactive: 108%,inactive: 93%,inactive: 97.4%,inactive: 96.4%,inactive: 112%,inactive: 107%
CN(C)C(=O)NP(=O)(N(C)C)N(C)C,inactive: 103%,inactive: 101%,inactive: 109%,inactive: 108%,inactive: 102%,inactive: 106%,inactive: 111%,inactive: 105%,inactive: 117%,inactive: 115%
COP(=O)(CCCBr)OC,inactive: 104%,inactive: 95.1%,inactive: 101%,inactive: 96.6%,inactive: 96.7%,inactive: 100%,inactive: 103%,inactive: 106%,inactive: 120%,inactive: 117%
O=[N+]([O-])c1ccc([N+](=O)[O-])cc1,inactive: 121%,inactive: 97.5%,inactive: 119%,inactive: 94%,inactive: 97.8%,inactive: 107%,inactive: 115%,inactive: 112%,inactive: 111%,inactive: 97.9%
CCOCCN(CCCl)Cc1ccccc1,inactive: 90.3%,inactive: 92%,inactive: 94.2%,inactive: 97.5%,inactive: 102%,inactive: 126%,inactive: 102%,inactive: 108%,inactive: 107%,inactive: 108%
CC1(CCC2(C)N=C(NN=C(CCl)CCl)SP2(=O)Nc2ncccn2)N=C(NN=C(CCl)CCl)SP1(=O)Nc1ncccn1 (stereo not given),inactive: 114% [100 µM],inactive: 101% [100 µM],inactive: 103% [100 µM],inactive: 99.6% [100 µM],inactive: 106% [100 µM],inactive: 100% [100 µM],inactive: 101% [100 µM],inactive: 95.8% [100 µM],inactive: 109% [100 µM],inactive: 105% [100 µM]
CC1CN1P(=O)(Nc1ncccn1)N1CC1C (stereo not given),inactive: 98%,inactive: 90%,inactive: 114%,inactive: 107%,inactive: 95.1%,inactive: 105%,inactive: 106%,inactive: 109%,inactive: 102%,inactive: 128%
CCOP(=S)(OCC)SCCCl,inactive: 106%,inactive: 112%,inactive: 102%,inactive: 100%,inactive: 107%,inactive: 109%,inactive: 92.2%,inactive: 102%,inactive: 113%,inactive: 113%
CC1(C)NC(C)(C)C(Br)C(=O)C1Br (stereo not given),inactive: 97.8%,inactive: 90.6%,inactive: 109%,inactive: 115%,inactive: 109%,inactive: 110%,inactive: 100%,inactive: 102%,inactive: 110%,inactive: 111%
CCN(CC)C(=O)Oc1ccc(/C=N/NC(N)=S)nc1,inactive: 78.3%,inactive: 48.3%,inactive: 86.7%,inactive: 63.2%,inactive: 84.4%,inactive: 59.6%,inactive: 75.1%,inactive: 70.8%,inactive: 78.3%,inactive: 113%
COC(=O)N(C)[N+](=O)[O-],inactive: 105%,inactive: 103%,inactive: 97.7%,inactive: 99.8%,inactive: 98.4%,inactive: 96.4%,inactive: 112%,inactive: 98.2%,inactive: 129%,inactive: 107%
C/C(N)=N\P(=O)(OCc1ccccc1)OCc1ccccc1,inactive: 104%,inactive: 102%,inactive: 105%,inactive: 95.9%,inactive: 88.7%,inactive: 100%,inactive: 116%,inactive: 102%,inactive: 111%,inactive: 101%
CCOP(=O)(Nc1ccc(C)cn1)OCC,inactive: 77.9%,inactive: 106%,inactive: 117%,inactive: 109%,inactive: 100%,inactive: 96.2%,inactive: 107%,inactive: 104%,inactive: 126%,inactive: 98%
ClCCN(CCc1ccccc1)Cc1ccccc1,inactive: 91.2%,inactive: 91%,inactive: 102%,inactive: 99.7%,inactive: 94%,inactive: 113%,inactive: 108%,inactive: 105%,inactive: 99.7%,inactive: 103%
O=C(c1ccc([N+](=O)[O-])cc1)N(CCCl)CCCl,inactive: 96.3%,inactive: 113%,inactive: 104%,inactive: 80.5%,inactive: 104%,inactive: 102%,inactive: 101%,inactive: 103%,inactive: 108%,inactive: 123%
